Values of other authors in US20130267588A1, “HYDROXYTYROSOL ETHERS” (FUNDACIO IMIM, priority 2010, published 2013).

Protein sequences, listed by entry. Tags and fused reporters are not part of them.
UniProt P20272, whole entry: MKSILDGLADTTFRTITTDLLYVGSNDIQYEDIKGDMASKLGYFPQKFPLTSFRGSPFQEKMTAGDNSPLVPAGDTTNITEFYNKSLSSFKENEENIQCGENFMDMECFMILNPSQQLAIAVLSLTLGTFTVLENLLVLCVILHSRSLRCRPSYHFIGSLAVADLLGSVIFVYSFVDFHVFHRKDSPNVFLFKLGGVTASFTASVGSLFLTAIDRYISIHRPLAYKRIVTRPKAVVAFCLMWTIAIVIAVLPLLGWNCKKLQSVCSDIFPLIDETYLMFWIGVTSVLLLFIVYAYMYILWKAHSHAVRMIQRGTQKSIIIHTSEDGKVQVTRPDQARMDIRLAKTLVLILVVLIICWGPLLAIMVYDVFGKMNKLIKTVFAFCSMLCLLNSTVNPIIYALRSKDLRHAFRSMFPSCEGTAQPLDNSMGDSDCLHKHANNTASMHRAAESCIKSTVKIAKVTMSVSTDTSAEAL

Target: T1, CB1 receptor (Rattus norvegicus, UniProt P20272)
T1 construct: displace [^3H]; from tissue; host or cells: rat cerebellum membranes
Details: values listed in the literature (Brit. J. Pharmacol. 1999 128: 684); cited from earlier work

## CCCCC/C=C\C/C=C\C/C=C\C/C=C\CCCC(=O)NCCO [Anandamide]
  Ki: 0.17 µM
